Test results as given in patent US20100297023A1, “Lipid” (priority 2006, published 2010).

System: IFN response genes (OAS-1, IFN-β)
Assay: Interferon response in vivo, intrahepatic OAS1 and IFNβ mRNA
Conditions: 28 d post-administration, relative to saline control; poly I:C 6 h

## Poly I:C
  intrahepatic OAS1 and IFNβ mRNA (activation of IFN response): significantly different
